Literature values in patent US8603436B2, “Methods and compositions for targeted drug delivery” (priority 2000, dated 2013).

Amino acid sequences for entries named in this document (tags omitted).
UniProt P02786, whole entry, stated change not applied: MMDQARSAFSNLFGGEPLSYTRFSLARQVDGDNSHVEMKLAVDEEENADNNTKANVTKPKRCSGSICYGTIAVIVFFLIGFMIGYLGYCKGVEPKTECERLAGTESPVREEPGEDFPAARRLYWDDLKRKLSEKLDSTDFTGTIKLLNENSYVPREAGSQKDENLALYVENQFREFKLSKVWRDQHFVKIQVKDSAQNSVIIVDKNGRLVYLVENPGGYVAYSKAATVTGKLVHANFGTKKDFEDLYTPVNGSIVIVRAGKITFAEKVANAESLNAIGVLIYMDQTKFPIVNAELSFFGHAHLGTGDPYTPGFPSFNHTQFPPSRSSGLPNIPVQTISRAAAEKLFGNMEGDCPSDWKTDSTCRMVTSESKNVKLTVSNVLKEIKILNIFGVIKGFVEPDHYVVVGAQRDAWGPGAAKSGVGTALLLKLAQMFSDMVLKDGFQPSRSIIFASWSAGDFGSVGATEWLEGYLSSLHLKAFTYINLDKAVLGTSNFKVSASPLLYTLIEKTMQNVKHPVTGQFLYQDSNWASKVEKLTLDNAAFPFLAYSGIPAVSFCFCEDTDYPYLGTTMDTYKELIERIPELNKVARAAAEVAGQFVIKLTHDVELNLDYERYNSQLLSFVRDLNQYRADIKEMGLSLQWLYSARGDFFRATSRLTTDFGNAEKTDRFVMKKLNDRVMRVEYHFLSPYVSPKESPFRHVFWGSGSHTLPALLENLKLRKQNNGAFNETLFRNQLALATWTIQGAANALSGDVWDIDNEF

Target: T1, engineered version of the transferrin receptor (Homo sapiens, UniProt P02786)
T1 construct: host or cells: tumor in vivo made to overexpress the engineered receptor gene
Details: in vivo, MRI

## transferrin-linked paramagnetic particles: transferrin-linked paramagnetic particles detected by MRI
  increase of paramagnetic particle uptake compared to tumors not expressing the engineered receptor gene: 2.5 fold
